Values quoted from earlier work, collected in patent US20070059382A1 (published 2007).

Conditions: in vivo; cited from earlier work

[B] [boron]
fraction of consumed boron absorbed: about 90%
